Source: PubChem BioAssay AID624034 (National Center for Advancing Translational Sciences (NCATS), 2012)
This is a selection; strong and weak results do not stand in their true shares. Results filed as inconclusive are left out. Calls of active or inactive are those of the source. Calls follow the shape of the dose curve; as a rule, active = well fitted inhibition curve with a large enough effect; inconclusive = small, poorly fitted or top-dose-only effect; inactive = flat fitted curve, though single readings scatter.

The chains behind the UniProt entries cited, without tags or fusion partners. Where a name states a change or a piece, a line headed by the entry shows the natural chain unless it says otherwise.
UniProt Q9HAZ1: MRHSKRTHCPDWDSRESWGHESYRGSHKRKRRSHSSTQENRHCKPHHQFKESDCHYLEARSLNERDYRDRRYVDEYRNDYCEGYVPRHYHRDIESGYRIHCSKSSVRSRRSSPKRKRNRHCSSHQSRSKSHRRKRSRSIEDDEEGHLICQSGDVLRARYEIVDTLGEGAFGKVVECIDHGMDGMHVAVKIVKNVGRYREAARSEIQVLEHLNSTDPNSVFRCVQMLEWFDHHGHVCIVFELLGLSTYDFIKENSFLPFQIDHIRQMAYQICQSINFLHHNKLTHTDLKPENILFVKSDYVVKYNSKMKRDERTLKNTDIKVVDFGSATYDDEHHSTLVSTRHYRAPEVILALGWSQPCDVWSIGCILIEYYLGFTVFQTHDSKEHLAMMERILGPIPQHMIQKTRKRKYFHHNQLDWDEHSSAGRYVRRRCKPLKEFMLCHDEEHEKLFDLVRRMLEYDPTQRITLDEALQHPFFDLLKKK

What follows are molecules tested against Dual specificity protein kinase CLK4 (Homo sapiens) (UniProt Q9HAZ1) (assay: Reaction Biology data for inhibitors of CLK4: Probe SAR). Conditions: Reaction Biology CLK4 kinase assay, 10 uM ATP.
Source text: Alternative splicing of pre-mRNAs plays a major role in the regulation of eukaryotic gene expression. Alternative splicing is now thought to be one of the primary reasons for the complexity of higher organisms leading to an average of three protein isoforms per gene. Aberrant splicing can lead to a number of diseases and is known to play a role in rare genetic diseases such as progeria syndrome. Hutchinson-Gilford Progeria Syndrome (HGPS) is a pediatric premature aging disease caused by a spontaneous mutation in the lamin A/C (LMNA) gene due to a single point mutation in the lamin A gene effecting 1 in 4 million people. To identify both specific splicing modulators of the lamin A gene as well as general splicing modulators, a cell-based HTS assay was developed using a minigene reporter system (AIDs, 1459 & 1487). […] This AID summarizes the characterization of lead compounds in Clk4. NIH Molecular Libraries Probe Production Centers Network [MLPCN] NIH Chemical Genomics Center [NCGC] MLPCN Grant: MH084827 Assay Submitter (PI): Tom Misteli
Compound IC50s were determined at Reaction Biology (http://www.reactionbiology.com) with ten concentration points starting at 10 uM in the assay using a 3-fold dilution series. The control compound staurosporine was also tested in the 10-dose IC50 mode with the same 3-fold serial dilution, again starting at 10 uM. […]

Structure (SMILES) | Potency
c1cncc(CNc2ncncc2-c2ccc3c(c2)OCO3)c1 | active: 7.54 µM
